System: O=[N+]([O-])c1ccc(O)cc1
Experiment: purified protein
Conditions: 200 μM NADH, 25 μM FAD, 50 mM phosphate pH 7.5

Q: For “two-component 4-CP monooxygenase (H6-CphA1 and H6-CphA2) (Rhodococcus sp. (in: high G+C Gram-positive bacteria))”, which Km is on record?
A: Its Km is 12.1 ± 1.8 µM.

Source: publication PMC6205950, “4-Chlorophenol Oxidation Depends on the Activation of an AraC-Type Transcriptional Regulator, CphR, in Rhodococcus sp. Strain YH-5B” (Frontiers in Microbiology, 2018)
